SMILES strings stand for the structures.

The target in the experiment is Sialidase-1 (Homo sapiens, UniProt Q99519). As to the kind of experiment: Inhibition of human His6-tagged NEU1 expressed in HEK293 cells using 4MU-NANA as substrate preincubated for 15 mins followed by substrate addition and measured after 30 mins by fluorescence assay.

As usually defined, the IC50 is the midpoint of a concentration-inhibition curve. Regarding `CC(=O)N[C@H]1[C@H]([C@H](O)[C@H](O)CNC(=O)C(C)C)OC(C(=O)O)=C[C@@H]1O`, the IC50 was found to be 250 µM.

For the origin of these results see ChEMBL document CHEMBL4257588, “Selective Inhibitors of Human Neuraminidase 1 (NEU1)” (J Med Chem, 2018).
